We go through 23 molecules from PubChem BioAssay AID1021 (Emory University Molecular Libraries Screening Center, 2008).

Sequences of proteins named here, by UniProt entry; tags and fusion partners are left off.
UniProt Q07820, whole entry: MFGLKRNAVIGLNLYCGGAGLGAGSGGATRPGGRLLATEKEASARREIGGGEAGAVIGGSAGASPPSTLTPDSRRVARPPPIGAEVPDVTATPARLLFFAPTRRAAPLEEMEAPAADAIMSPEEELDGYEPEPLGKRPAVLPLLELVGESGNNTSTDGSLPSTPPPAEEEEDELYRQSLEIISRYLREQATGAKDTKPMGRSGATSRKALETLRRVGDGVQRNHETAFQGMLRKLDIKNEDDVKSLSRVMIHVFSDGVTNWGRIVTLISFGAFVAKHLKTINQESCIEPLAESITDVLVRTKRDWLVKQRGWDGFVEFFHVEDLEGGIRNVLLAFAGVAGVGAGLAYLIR

Only a part is listed here, and it is no random draw. Calls of active or inactive are those of the source.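 Rule for the calls: active = compounds that cut the binding signal by more than half at the single screening dose; inactive = the rest.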

This test deals with Induced myeloid leukemia cell differentiation protein Mcl-1 (Homo sapiens) (UniProt Q07820). Nature of the test: Mcl-1/Bid binding inhibitors, primary screen, biochemical, TR-FRET, 1536-well (AID 1021).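 Note: His-tagged Mcl-1 with europium anti-His antibody binding Bid BH3 peptide; 0% = Mcl-1 plus peptide wells and 100% = peptide-only wells.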 The conditions noted are these: TR-FRET Mcl-1/Bid-Dy647 peptide binding, at 21.7 µM, active compounds read high. (TR-FRET usually uses a lanthanide donor and a delayed reading to cut background.)
Take `CCc1ccc(OP(C)(=O)O)cc1`: the inhibition was inactive: -0.38%. The figure for `COc1ccccc1OP(C)(=O)Nc1ccc(C)cc1C` (stereo not drawn) is inactive: -9.34%; for `CP(=O)(Nc1ccccn1)Oc1ccccc1` (stereo not drawn) it is inactive: -18.1%. Under `COc1ccccc1OP(C)(=O)Nc1ccc(Br)cc1` (stereo not drawn) stands inactive: 6.68%; under `CN(C)CCOC(=O)C(O)(c1ccccc1)C1CCCC1` (stereo not drawn), inactive: -15.9%. Consider `COc1ccc(OP(C)(=O)Nc2ccccn2)cc1` (stereo not drawn), for which the inhibition is inactive: -2.47%. Turning to `Cc1nc2ccc3ccccc3c2o1.O=[N+]([O-])c1cc([N+](=O)[O-])c(O)c([N+](=O)[O-])c1`, the inhibition was inactive: -37.7%. The figure for `CP(=O)(OCCOc1ccccc1)OCCOc1ccccc1` is inactive: -16.3%; for `CP(=O)(Nc1ccc(Cl)cc1Cl)Oc1ccccc1` (stereo not drawn) it is inactive: -14.4%. On to `Cc1cc(C)cc(OP(C)(=O)Nc2cccc(C(F)(F)F)c2)c1` (stereo not drawn), for which the inhibition was inactive: -14%. As to `COc1ccc(OP(C)(=O)Nc2ccccc2Br)cc1` (stereo not drawn), the inhibition is inactive: 5.08%. Take `COc1ccccc1OP(C)(=O)Nc1ccc(C)c(C)c1` (stereo not drawn): the inhibition was inactive: -33.5%.

With `CP(=O)(OC12CC3CC(CC(C3)C1)C2)OC12CC3CC(CC(C3)C1)C2`, the inhibition was inactive: -11.6%.

Take `CCOC(=O)c1ccc(NP(C)(=O)Oc2ccc(Cl)cc2)cc1` (stereo not drawn): the inhibition is inactive: 4.47%. Under `CP(=O)(Nc1ccc(Cl)cc1)Oc1ccc(F)cc1` (stereo not drawn) stands inactive: -8.18%. Under `CC(C)(C)c1ccc(OP(C)(=O)O)cc1` stands inactive: -19.2%; under `COc1ccccc1OP(C)(=O)Nc1ccccc1Br` (stereo not drawn), inactive: -7.97%; under `CN(C)C(=O)c1c([N+](=O)[O-])cc([N+](=O)[O-])cc1[N+](=O)[O-]`, inactive: -15.3%.

For the molecule `COc1ccc(OP(C)(=O)Nc2ccc(Br)cc2)cc1` (stereo not drawn), the inhibition was inactive: -9.99%. `CCN(CC)CC(O)COC(=O)C(O)(c1ccccc1)C1CCCCC1` (stereo not drawn): the inhibition is inactive: 0.87%.

`CCc1ccc(OP(C)(=O)Nc2cccnc2)cc1` (stereo not drawn): the inhibition was inactive: -20.6%. In the case of `CP(=O)(Oc1ccccc1)N1CCOC1=O` (stereo not drawn), the inhibition was inactive: -21.1%. `O=C(OCCCN1CCCC1)C(O)(c1ccccc1)C1CCCCC1` (stereo not drawn): the inhibition is inactive: 6.43%.

A word on the inhibition: it is the drop in the measured response relative to a control, in per cent.
